Article PMC9628480, “Discovery and structural characterization of chicoric acid as a SARS-CoV-2 nucleocapsid protein ligand and RNA binding disruptor” (Scientific Reports, 2022)

Assays:
[1] = system: Vero CCL81 cells; test: MTT cell viability, Vero CCL81; type: cell-based, African green monkey; conditions: Vero CCL81, CA 25 and 100 µM, 48 h
[2] = system: Calu-3 cells; test: MTT cell viability, Calu-3; type: cell-based, Human; conditions: Calu-3, CA 25 and 100 µM, 48 h
[3] = parameters: method as in PMID 14748892, PMID 16524737; conditions: cited from earlier work

L-Chicoric acid
cell viability (MTT) [1]: remained viable
cell viability (MTT) [2]: remained viable
cell permeability [3]: low
